This passage reports CC50 results from paper PMC5988308, “Rhodanine derivatives as potent anti-HIV and anti-HSV microbicides” (PLoS ONE, 2018).

A value given as a limit tells only on which side of the number the result lay.

For this data set, the system named is TZM-bl cells. The experiment in a line: Cytotoxicity on TZM-bl cells (XTT test). The format is cell-based, human. The following applies: read-out: Citotoxicity (TZM-bl cells) CC50. In general terms: Tetrazolium dyes change colour on reduction, which living cells bring about.

A word on the CC50: it is the concentration that lowers cell viability or growth by half. On to maraviroc [reference compound], for which the cytotoxic concentration (CC50) is greater than 20 µM.
